In article PMC10825183 (Nature Communications, 2024):
Where “and” joins values, the source holds several entries; their conditions need not be identical. Equal entries are not always repeated.

Amino acid sequences for entries named in this document (tags omitted). Residues count along the entry.
UniProt Q9UL51, 521-706 L670G/L671G/D698A: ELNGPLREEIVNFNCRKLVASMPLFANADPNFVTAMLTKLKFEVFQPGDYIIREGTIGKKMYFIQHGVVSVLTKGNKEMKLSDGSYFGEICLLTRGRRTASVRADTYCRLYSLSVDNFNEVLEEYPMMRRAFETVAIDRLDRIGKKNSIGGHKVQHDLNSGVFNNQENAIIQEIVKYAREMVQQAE

Columns and labels:
[1] = target: T1, human HCN2 CNBD L670G - L671G - D698A (Homo sapiens, UniProt Q9UL51, D698A/L670G/L671G); details: cAMP titrant
[2] = target: T1, human HCN2 CNBD L670G - L671G - D698A; assay: biochemical

Nc1ncnc2c1ncn2[C@@H]1O[C@@H]2COP(=O)(O)O[C@H]2[C@H]1O [cAMP, Adenosine 3′,5′-cyclic monophosphate]
stoichiometry (N) ([1]; mean ± SEM, n = 3): 0.9 ± 0.1
N, representative sample (Fig. 7b) ([1]; single ITC experiment): 0.9
Kd ([2]; KD of individual experiments (source data Fig. 7c), cAMP titrant, unit inferred): 6.67 µM and 6.53 µM and 7.04 µM
Kd ([2]; KD, cAMP titrated into 20 µM CNBD, 25 °C, mean ± SEM, n = 3): 6.7 ± 0.2 µM
Kd ([2]; KD, representative sample (Fig. 7b), cAMP titrant, single ITC experiment): 6.6 µM
